## Apparent affinities of Ab-14 variants for a coronavirus HR2 peptide

Source: Li et al. 2023 (doi:10.1038/s41467-023-39022-2), MIT Lincoln Laboratory and A-Alpha Bio; data file from the FLAb repository.

All variants were tested on one target, the spike HR2 peptide PDVDLGDISGINAS (SARS-CoV-2).

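These sequences belong to a second round, designed from the earlier measurements on random variants of the parent. Several design methods are mixed in this list. AlphaSeq pools MATa yeast showing the antibodies with MATalpha yeast showing the peptide. Mating (16 h, 30 °C) was followed by selection of diploids and sequencing of their barcodes. A regression on co-assayed BCL2-family reference pairs converts the normalised counts of each replicate to an apparent Kd. There are six technical replicates.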

Parent: Ab-14, a human scFv built as VH, a (GGGGS)3 linker, VL. Only the CDRs of the heavy chain vary.
VH: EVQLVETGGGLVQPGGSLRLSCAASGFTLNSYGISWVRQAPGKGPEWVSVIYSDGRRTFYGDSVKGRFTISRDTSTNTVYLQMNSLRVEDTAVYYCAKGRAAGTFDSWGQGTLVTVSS
VL: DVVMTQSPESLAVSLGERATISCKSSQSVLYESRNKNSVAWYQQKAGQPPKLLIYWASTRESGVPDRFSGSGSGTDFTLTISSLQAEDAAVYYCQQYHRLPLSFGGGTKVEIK

Each variant is given by its three heavy chain CDRs, as the data file delimits them; those of the parent are GFTLNSYGIS, VIYSDGRRTFYGDSVK, GRAAGTFDS. Each Kd is an estimate from the mating assay, the geometric mean of the replicates in which the pair was seen; lower is stronger. Where no diploid with the target was found in any replicate, the entry reads "nd": below detection, most likely a poor binder, though not proof of it. As a blank, each scFv also met three strains without target: over all heavy chain designs, 1% of these pairings were detected, typically at 120 nM and seldom below 7.0 nM. The range of this assay differs from that of the first round, and the authors advise against merging the two. In the paper, a design with two or fewer of six values counts as a poor binder. Of ten entries with the parent sequence, four were seen in most replicates (averages 2.2 nM to 240 nM), three in one and three in none, so single entries are noisy.

| # | CDR-H1 | CDR-H2 | CDR-H3 | Kd | seen in |
|---|---|---|---|---|---|
| 1 | GFDLNEYGIS | VIYADGRRTFYADSVK | GEAAGTFVS | 2.0 nM | 6/6 |
| 2 | GFQLNSYGIS | VIYSDGRRTFYKDQVK | GQTAGTFDS | 150 nM | 1/6 |
| 3 | GFSINSYGIS | VIYSDGRRTFYSDSVK | GRAAGTFDS | 2.9 nM | 6/6 |
| 4 | GFSLNEYGIS | VIYSDGRRTFYGDSVK | GMTAGTFDS | 490 pM | 6/6 |
| 5 | GFELNEYGIS | VIYSDGRRTFYGDSVK | GNAAGTFDT | 4.6 nM | 6/6 |
| 6 | GFTLESYGIS | VIYSDGKRTFYGDSVK | GRQAGTFDS | 18 nM | 6/6 |
| 7 | GFTLNSYGIS | VIYSDGRRTAYGDSVK | GRAAGTFDM | 25 nM | 6/6 |
| 8 | GFQLNSYGIS | VIYSDGKRTFYGDSVK | GQAAGTFDL | 57 nM | 6/6 |
| 9 | GFTLDSYGIS | VIYSDGRRTFYGDSVK | GEAAGTFDK | 40 nM | 5/6 |
| 10 | GFTINSYGIS | VIYSDGRRTFYGDSVK | GVAAGTFDS | 110 nM | 6/6 |
| 11 | GFSLNSYGIS | VIYSDGRRTFYGDSVK | GNVAGTFDN | 14 nM | 5/6 |
| 12 | GFDLNEYGIS | VIYADGVRTAYADSVK | GNEAGTFDQ | 2.0 nM | 6/6 |
| 13 | GFNLNSYGIS | VIYSDGRRTFYADSVK | GQTAGTFDS | 1.2 nM | 6/6 |
| 14 | GFNLNSYGIS | VIYSDGRRTFYGDAVK | GQTAGTFDS | 13 nM | 6/6 |
| 15 | GFDIDEYGIS | VIYADGMRTFYTDSVK | GEIAGTFDA | 510 pM | 6/6 |
| 16 | GFDLNEYGIS | VIYADGRRTFYADSVK | GKIAGTFNT | 360 pM | 6/6 |
| 17 | GFDLGEYGIS | VIYADGHRRAYSDDVK | GMHSGSVQT | 3.9 µM | 3/6 |
| 18 | GFTLESYGIS | VIYSDGRRTFYIDSVK | GNAAGTFDS | 2.8 nM | 3/6 |
| 19 | GETLNEYGIS | VIYSDGRRTFYGDSVK | GRAAVTFDK | 200 nM | 3/6 |
| 20 | KFTLNSYGIH | VIYSDGRRTFYHDSVK | CRAAGTFDV | nd | 0/6 |
| 21 | GFTLNSYGII | VIYADGRRTFYGDSVK | GRAAGTFDS | nd | 0/6 |
| 22 | GFDLNEYGIS | VIYADGMRTAYSDSVK | GNVAGTFDS | 420 pM | 6/6 |
| 23 | MFDLNTYGIS | VIYSDGRRTFYGDSVK | GEAAGTFDK | 62 nM | 2/6 |
| 24 | GDILEEYGIS | VIYADGMRTYYEPSVK | GNVNGVFFI | nd | 0/6 |
| 25 | GFTLNQYGIS | VIYSDGRYTFYGDSVK | GRAAPTFIS | nd | 0/6 |
| 26 | GFDLDEYGIS | VIYADGRRTFYADSVK | GEAAGTFDM | 210 pM | 6/6 |
| 27 | GFSLNSYGIS | VIYSDGRRTFYGDSVK | GEIAGTFDS | 2.0 nM | 6/6 |
| 28 | GFTLNNYGIS | VIYADGRRTFYGDSVK | GQAAGTFDS | 780 pM | 6/6 |
| 29 | GFDLNEYGIS | VIYADGLRTSYADSVK | GQNAGTFDV | 960 pM | 6/6 |
| 30 | GFTLNSYGIS | VIYSDGRRTFYGPSVK | GRADGTRDS | 9.8 µM | 1/6 |
| 31 | GFDLDEYGIS | VIYADGRRTAYSDSVK | GEVAGTFDV | 1.2 nM | 6/6 |
| 32 | GFDLNEYGIS | VIYADGIRTFYADSVK | GNAAGTFDS | 400 pM | 6/6 |
| 33 | GFDLNEYGIS | VIYADGMRTAYSDSVK | GNAAGTFDV | 740 pM | 6/6 |
| 34 | GFDLNEYGIS | VIYADGMRTAYADSVK | GENAGTFDE | 650 pM | 6/6 |
| 35 | GFTLNDYGIS | VIYSDGRRTMYIDSVK | GRSAGTFDS | 58 nM | 3/6 |
| 36 | GFTLNSYGIS | VIYSDGRRTFYGDNVK | GRAAGTFDS | 14 nM | 4/6 |
| 37 | GFTLNEYGIS | VIYSDGRRTFYGDSVK | GMAAGTFDL | 1.4 nM | 6/6 |
| 38 | GFDLNEYGIS | VIYADGQRTFYADSVK | GEIAGTFDV | 680 pM | 6/6 |
| 39 | GFDLNEYGIS | VIYADGMRTAYADSVK | GSNAGTFDV | 390 pM | 6/6 |
| 40 | GFHLNSYGIS | VIYSDGQRTFYVDSVK | GRTAGTFDS | 48 nM | 3/6 |
| 41 | GFDLNSYGIS | VIYSDGRRTFYSDQVK | GEAAGTFDS | 2.1 nM | 6/6 |
| 42 | GFSLNDYGIS | VIYSDGRRTFYGDSVK | GRLAGTFIS | nd | 0/6 |
| 43 | GFDLNEYGIS | VIYADGVRTFYTDSVK | GEFAGTFDV | 830 pM | 6/6 |
| 44 | GFDLNEYGIS | VIYADGMRTSYADSVK | GEAAGTFDV | 300 pM | 6/6 |
| 45 | GFTLESYGIS | VIYSDGRRTFYGDDVK | GQAAGTFDS | 35 nM | 5/6 |
| 46 | GFTLNEYGIS | VIYSDGRRTFYSDSVK | GKAAGFFDS | nd | 0/6 |
| 47 | GFDLNEYGIS | VIYADGRRTAYADSVK | GQVAGTFDE | 7.1 nM | 6/6 |
| 48 | GFTLESYGIS | VIYSDGRRTFYADSVK | GQAAGTFDK | 5.3 nM | 5/6 |
| 49 | GFDLNEYGIS | VIYADGVRTFYTDSVK | GEHAGTFDV | 370 pM | 6/6 |
| 50 | GFTLNSYGIS | VIYSDGRRTFYIDSVK | GKQAGTFDS | 20 nM | 6/6 |
| 51 | GFTLNSYGIS | VIYSDGRRTFYGDSVK | GRAAGLFDQ | nd | 0/6 |
| 52 | GFDLNEYGIS | VIYADGVRSFYADNAK | GNAGIFAEV | nd | 0/6 |
| 53 | GFDLNEYGIS | VIYADGRRTFYADSVK | GNNGGTFDV | 470 pM | 6/6 |
| 54 | GFHLNSYGIS | VIYSDGRRTFYGDSVK | GEAAGTFDS | 8.7 nM | 5/6 |
| 55 | GFELNSYGIS | VIYSDGRRTFYGDSVK | GKIAGTFDS | 6.2 nM | 6/6 |
| 56 | YFTLESYGIS | VIYADGRRTFYGDSVK | GRAAGTFKS | nd | 0/6 |
| 57 | GFSLNSYGIS | VIYSDGQRTFYGDSVK | GRTAGTFDS | 2.0 nM | 6/6 |
| 58 | GFGLNSYGIS | VIYSDGQRTFYGDSVK | GREAGTFDS | 7.1 nM | 6/6 |
| 59 | GESLNEYGIS | VIYADGVRSGYTNKVK | GQNTGAVSD | nd | 0/6 |
| 60 | GFSLNSYGIS | VIYSDGRRTFYGDQVK | GREAGTFDK | 5.8 nM | 6/6 |
| 61 | GFELNSYGIS | VIYSDGRRTFYGDSVK | GKAAGTFDT | 34 nM | 6/6 |
| 62 | GFDLNEYGIS | VIYADGLRTFYTDSVK | GEFAGTFDI | 25 nM | 3/6 |
| 63 | GFDLNSYGIS | VIYSDGRRTFYGDAVK | GKAAGTFDQ | 3.9 nM | 6/6 |
| 64 | GFTLNSYGIS | VIYSDGRRTAYGDSVV | GRAAGTFDS | 100 nM | 6/6 |
| 65 | GFTLNQYGIS | VIYSEGRRTFYSDSVK | GRAAGFFDS | nd | 0/6 |
| 66 | GFQLNEYGIS | VIYSDGRRTFYGDQVK | GRAAGTFIS | nd | 0/6 |
| 67 | GFTLDSYGIS | VIYSDGRRTFYDDSVK | GQLAGTFDS | 1.6 nM | 6/6 |
| 68 | GFELNSYGIS | VIYSDGRRTFYGDSVK | GRVAGTFDC | nd | 0/6 |
| 69 | GFTLNSYGIS | VIYSDGRKTFYGDSVK | GQAAGTFDW | nd | 0/6 |
| 70 | GYDLQDYGIS | VIYADGVRVAYHQSVK | GQTAGIFLL | 1.5 nM | 5/6 |

For reference, 7 entries of the list once more:

| CDR-H1 | CDR-H2 | CDR-H3 | Kd | seen in |
|---|---|---|---|---|
| GFDLGEYGIS | VIYADGHRRAYSDDVK | GMHSGSVQT | 3.9 µM | 3/6 |
| GFTLESYGIS | VIYSDGRRTFYIDSVK | GNAAGTFDS | 2.8 nM | 3/6 |
| GFTLNSYGIS | VIYSDGRRTAYGDSVK | GRAAGTFDM | 25 nM | 6/6 |
| GFSLNSYGIS | VIYSDGRRTFYGDSVK | GEIAGTFDS | 2.0 nM | 6/6 |
| GFDLNEYGIS | VIYADGVRTFYTDSVK | GEFAGTFDV | 830 pM | 6/6 |
| GFTLESYGIS | VIYSDGRRTFYADSVK | GQAAGTFDK | 5.3 nM | 5/6 |
| GFTLNSYGIS | VIYSDGRRTFYGPSVK | GRADGTRDS | 9.8 µM | 1/6 |